ChEMBL document CHEMBL1134061, “Synthesis and biological evaluations of condensed pyridine and condensed pyrimidine-based HMG-CoA reductase inhibitors” (Bioorg Med Chem Lett, 2001)

Target: T1, 3-hydroxy-3-methylglutaryl-coenzyme A reductase (Homo sapiens, UniProt P04035)
T1 sequence (P04035 whole entry): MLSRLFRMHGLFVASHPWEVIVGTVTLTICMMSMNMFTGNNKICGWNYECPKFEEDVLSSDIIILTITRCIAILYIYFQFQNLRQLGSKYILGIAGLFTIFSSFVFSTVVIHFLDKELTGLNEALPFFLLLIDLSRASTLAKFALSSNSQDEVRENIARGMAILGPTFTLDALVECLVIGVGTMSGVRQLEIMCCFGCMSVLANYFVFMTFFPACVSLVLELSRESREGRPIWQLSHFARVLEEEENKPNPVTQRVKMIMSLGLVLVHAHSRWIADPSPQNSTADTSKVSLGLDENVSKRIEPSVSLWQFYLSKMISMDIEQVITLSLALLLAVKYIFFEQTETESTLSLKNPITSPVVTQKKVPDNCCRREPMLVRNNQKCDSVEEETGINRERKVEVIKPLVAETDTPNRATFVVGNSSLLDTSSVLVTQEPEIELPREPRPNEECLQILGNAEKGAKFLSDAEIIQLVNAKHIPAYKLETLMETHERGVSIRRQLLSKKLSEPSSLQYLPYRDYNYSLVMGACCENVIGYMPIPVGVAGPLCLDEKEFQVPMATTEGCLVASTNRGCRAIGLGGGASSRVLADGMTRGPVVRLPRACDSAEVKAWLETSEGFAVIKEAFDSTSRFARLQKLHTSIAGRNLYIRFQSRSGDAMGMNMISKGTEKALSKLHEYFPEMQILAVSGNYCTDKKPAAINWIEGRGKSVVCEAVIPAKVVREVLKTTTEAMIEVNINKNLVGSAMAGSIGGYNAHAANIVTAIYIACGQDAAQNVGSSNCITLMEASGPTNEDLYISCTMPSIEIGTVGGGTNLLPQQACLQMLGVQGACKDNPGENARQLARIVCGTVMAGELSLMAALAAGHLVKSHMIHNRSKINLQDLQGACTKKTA
Experiment: In vitro HMG-CoA reductase inhibitory activity to inhibit cellular steroidgenesis in Hep G2 cells (human hepatoma cell line)
Type: cell-based, HepG2

`CC[C@H](C)C(=O)O[C@H]1C[C@H](O)C=C2C=C[C@H](C)[C@H](CC[C@@H](O)C[C@@H](O)CC(=O)O)[C@H]21` [PRAVASTATIN SODIUM] was tested, and the IC50 was 1.37 µM.
